Sampled rows, rich in hits. Any-hit rate of the full collection: about 2.3%.
miR-21 reporter: miR-21 reporter, rising signal | HeLa miR-21 FLuc reporter, luciferase, 48 h | Potency, µM (highest dose often 38.3 µM), for inactives: at the top dose reporter change, positive = more light | 340,000 tested, under 10 active | AID 2288; active = well fitted rising curve with a large enough effect; inconclusive = small, poorly fitted or top-dose-only effect; inactive = no such curve, though single readings can be large or run the other way;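 further: % of control where 0% means no effect; miR-21 action dims this reporter so a rising signal means less miR-21 action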
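HeLa miR-21-FLuc reporter line, endogenous miR-21; 2000 cells/well in DMEM/10% FBS; compound titration up to ~40uM final, 48 h, 37 degree Celsius; luciferase detection reagent, 15 min lysis, CCD luminescence.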
Mito fusion yeast: mitochondrial division inhibition or fusion activation | S. cerevisiae fusion-defective mutant growth rescue, CellTiterGlo 48 h | Potency, µM (series often up to 46.1 µM), for inactives: top-dose growth rescue (activation), usual class: activators | 320,000 tested, 0.23% active | AID 485298; note: potency is the fitted concentration of half-maximal effect; % of control where 0% means no effect; nearly all actives have a fitted effect of over 45% in size
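Luminescent cell viability in 1536-well qHTS format served as the measure of rescued growth in ts fusion-mutant S. cerevisiae cultured on non-fermentable YPEG for 48 hours at 37C.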
Nrf2 ARE act: activators of Nrf2 (ARE) signaling | AID 624171 | Potency, µM (doses to about 46.1 µM), for the others: top-dose activation, most hits filed as activators | 410,000 tested, 0.31% active | AREc32 ARE-luciferase reporter (MCF7-derived line), luminescence, 24 h; note: potency is the fitted concentration of half-maximal effect; % of control where 0% means no effect; nearly all actives have a fitted effect of over 65% in size
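ARE-driven firefly luciferase activity in AREc32 cells measured after a 24 hr compound exposure at 37 deg C, using Steady-Glo reagent and a 30 min room-temperature hold.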
Nrf2 inh: Nrf2 pathway inhibition; 360,000 tested, 2.1% active; Potency, µM (doses to about 46 µM), for the others: at the top dose activity change, negative = inhibition, usual class: inhibitors; A549 ARE-Fluc reporter, luciferase luminescence, 18-24 h; note: potency is the fitted concentration of half-maximal effect; % is set by controls: 0 for no effect and ±100 for the full control effect; nearly all actives have a fitted effect of over 60% in size
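Reporter: ARE-Fluc in A549. Exposure: 18-24 h, 37 °C, 5% CO2, 5% FBS OPTI-MEM. Readouts: fluorescent cytotoxicity (CellTiter-Fluor), then luminescent Nrf2 signal after BugLite.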
A549 viability: counter-screen for Nrf2 inhibitors: cytotoxicity in A549 cells. A549 ARE-Fluc cells, CellTiter-Fluor viability, 18-24 h. AID 504648. 390,000 tested, 0.16% active. Potency, µM (titrated, usually from 46 µM), for the others: at the highest dose activity change, negative = cytotoxicity, most hits filed as inhibitors; note: potency is the fitted concentration of half-maximal effect; % is set by controls: 0 for no effect and ±100 for the full control effect
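Cytotoxicity counterscreen: CellTiter-Fluor fluorescence was measured in A549 ARE_Fluc cells after 18-24 h of compound exposure in a concentration series. The subsequent BugLite luminescent read reports ARE-luciferase activity.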
An asterisk follows results filed as active; ! = not confirmed by another sample; [ ] = another dose, or the depositor's remark. Unless noted, calls come from the whole dose curve; as a rule, active = well fitted curve in the direction sought with a large enough effect; inconclusive = small, poorly fitted or top-dose-only effect, or another doubt; inactive = no such curve, though single readings can be large; an effect the other way counts as inactive or inconclusive.

Start of the data: the first 2 records, to show the layout:
What do the screens show for `CC1Cc2ccccc2N1C(=O)CSc1nnc2c(n1)[nH]c1ccccc12` (stereo unspecified)?
miR-21 reporter: 3%; Mito fusion yeast: 0%; Nrf2 ARE act: 1%; Nrf2 inh: inconclusive; A549 viability: -3%

How did CC1Cc2ccccc2N1C(=O)CSc1nnc(-c2ccccc2Cl)o1 (stereo unspecified) do in these assays?
miR-21 reporter: 4%; Nrf2 ARE act: 1.8µM*; Nrf2 inh: -29%; A549 viability: 0%

The listing, from the start:
What do the screens show for `CC1Cc2ccccc2N1C(=O)CSc1nnc2c(n1)[nH]c1ccccc12` (stereo unspecified)?
miR-21 reporter: 3%; Mito fusion yeast: 0%; Nrf2 ARE act: 1%; Nrf2 inh: inconclusive; A549 viability: -3%

How did CC1Cc2ccccc2N1C(=O)CSc1nnc(-c2ccccc2Cl)o1 (stereo unspecified) do in these assays?
miR-21 reporter: 4%; Nrf2 ARE act: 1.8µM*; Nrf2 inh: -29%; A549 viability: 0%

How did CC1Cc2ccccc2N1C(=O)CSc1nnc(-c2ccccc2)c(-c2ccccc2)n1 (stereo unspecified) do in these assays?
miR-21 reporter: -1%; Mito fusion yeast: 1%; Nrf2 ARE act: 0%; Nrf2 inh: 23µM*; A549 viability: 0%[1.84 µM]

How did O=C(CSc1nnc(-c2c[nH]c3ccccc23)o1)N1c2ccccc2CCc2ccccc21 do in these assays?
miR-21 reporter: 22%; Mito fusion yeast: -2%; Nrf2 ARE act: 0%; Nrf2 inh: 12µM*; A549 viability: -26%

How did FC(F)(F)c1cccc(N2CCN(c3ccc4nnc(-c5ccccc5)n4n3)CC2)c1 do in these assays?
miR-21 reporter: -3%; Mito fusion yeast: 4%; Nrf2 ARE act: 0%; Nrf2 inh: 16µM*; A549 viability: inconclusive

What do the screens show for `c1ccc(-c2nnc3ccc(N4CCCC4)nn23)cc1`?
miR-21 reporter: -14%; Mito fusion yeast: 5%; Nrf2 ARE act: 1%; Nrf2 inh: inconclusive; A549 viability: 5%

What do the screens show for `COC(=O)c1scc(C)c1NC(=O)c1ccccc1F`?
miR-21 reporter: -13%; Mito fusion yeast: 6%; Nrf2 ARE act: 13µM*; Nrf2 inh: inconclusive; A549 viability: 2%

What do the screens show for `COC(=O)c1scc(C)c1NC(=O)C(Cl)c1ccccc1` (stereo unspecified)?
miR-21 reporter: 5%; Mito fusion yeast: 8%; Nrf2 ARE act: 13µM*; Nrf2 inh: 4%; A549 viability: 2%

What do the screens show for `Cc1cc(S(=O)(=O)NC2CCCCC2)ccc1-n1cnnn1`?
miR-21 reporter: -1%; Mito fusion yeast: -13%; Nrf2 ARE act: -1%; Nrf2 inh: 12µM*; A549 viability: -6%

Results for CCSc1nnc(NC(=O)CSc2nc3c(c(=O)n2CC)SC(C)C3)s1 (stereo unspecified) ?
miR-21 reporter: 3%; Mito fusion yeast: 0%; Nrf2 ARE act: 0%; Nrf2 inh: 18µM*; A549 viability: -14%

What do the screens show for `CCOc1ccccc1C1NC(=O)NC(C)=C1C(=O)OC1CCCCC1` (stereo unspecified)?
miR-21 reporter: -3%; Mito fusion yeast: 18%; Nrf2 ARE act: 0%; Nrf2 inh: 21µM*; A549 viability: -26%

What do the screens show for `CCOc1ccccc1C1NC(=O)NC(C)=C1C(=O)OC1CCCC1C` (stereo unspecified)?
miR-21 reporter: -7%; Mito fusion yeast: 11%; Nrf2 ARE act: 0%; Nrf2 inh: -26%; A549 viability: -9%

How did CC1=C(C(=O)OCc2ccccc2)C(c2ccccc2OC(F)F)NC(=O)N1 (stereo unspecified) do in these assays?
miR-21 reporter: 11%; Mito fusion yeast: 4%; Nrf2 ARE act: 3%; Nrf2 inh: 23µM*; A549 viability: -8%

What do the screens show for `COc1ccccc1C1NC(=O)NC(C)=C1C(=O)OCc1ccccc1` (stereo unspecified)?
miR-21 reporter: 1%; Mito fusion yeast: 1%; Nrf2 ARE act: 0%; Nrf2 inh: -7%; A549 viability: 2%

Results for CC1C(=O)Nc2ccc(S(=O)(=O)Nc3ccccc3Br)cc2NC1=O (stereo unspecified) ?
miR-21 reporter: -11%; Mito fusion yeast: 6%; Nrf2 ARE act: 0%; Nrf2 inh: 16µM*!; A549 viability: 2%

Results for COc1cc(C(=O)Nc2ccc3oc(-c4ccc(C)c(Br)c4)nc3c2)cc(OC)c1OC ?
miR-21 reporter: -5%; Nrf2 ARE act: 0%; Nrf2 inh: -23%; A549 viability: 0%

How did CCCN1CNc2c(c(=O)[nH]c(=S)n2CCc2ccsc2)C1 do in these assays?
Nrf2 inh: 3%; A549 viability: 24%

What do the screens show for `COc1ccc(-c2ccc3ncnc(NCc4ccc(C)o4)c3c2)cc1OC`?
Nrf2 inh: -23%; A549 viability: -15%

What do the screens show for `COc1ccc(-c2csc(NC(C)=O)n2)cc1OC`?
miR-21 reporter: -28%; Mito fusion yeast: -3%; Nrf2 ARE act: 3%; Nrf2 inh: 11%; A549 viability: -3%

What do the screens show for `COc1cccc(NC(=O)Nc2nc(-c3ccc(OC)c(OC)c3)cs2)c1`?
miR-21 reporter: inconclusive; Mito fusion yeast: -2%; Nrf2 ARE act: -2%; Nrf2 inh: 7.3µM*; A549 viability: 16µM*

How did COc1ccc(-c2csc(NC(=S)NC(=O)c3ccc4ccccc4c3)n2)cc1OC do in these assays?
miR-21 reporter: -6%; Mito fusion yeast: -1%; Nrf2 ARE act: -1%; Nrf2 inh: 9.2µM*; A549 viability: -14%

What do the screens show for `COc1ccccc1C(=O)Nc1nc(-c2ccc3c(c2)OCCO3)cs1`?
miR-21 reporter: -9%; Mito fusion yeast: 9%; Nrf2 ARE act: 5%; Nrf2 inh: 23µM*; A549 viability: -4%

How did CN(C)/C=C/C(=O)c1ccc(Cl)c([N+](=O)[O-])c1 do in these assays?
miR-21 reporter: 1%; Mito fusion yeast: 1%; Nrf2 ARE act: 13µM*; Nrf2 inh: 3%; A549 viability: -11%

What do the screens show for `CCc1ccc(-n2c(CCC(=O)O)ccc2-c2ccc(F)cc2)cc1`?
miR-21 reporter: -4%; Nrf2 ARE act: 1%; Nrf2 inh: -8%; A549 viability: 7%

Results for CSc1ccc2nnc(-c3ccc(C)cc3)n2n1 ?
Nrf2 inh: -21%; A549 viability: -16%

How did Cn1nnnc1SCc1ccc(C(=O)Nc2nccs2)cc1 do in these assays?
miR-21 reporter: -27%; Mito fusion yeast: -2%; Nrf2 ARE act: 1%; Nrf2 inh: inconclusive; A549 viability: 0%[1.84 µM]

Results for C=CCn1c(SCc2ccc(C(=O)Nc3nccs3)cc2)nnc1-c1ccc(C)c(Cl)c1 ?
miR-21 reporter: inconclusive; Mito fusion yeast: 10%; Nrf2 ARE act: 1%; Nrf2 inh: 21µM*; A549 viability: -18%

How did CCOC(=O)c1ccc(N2C(=O)c3[nH]nc(-c4ccc(OC)cc4)c3C2c2cccc(O)c2)cc1 (stereo unspecified) do in these assays?
miR-21 reporter: inconclusive; Nrf2 ARE act: -4%; Nrf2 inh: inconclusive; A549 viability: -28%

How did CCOC(=O)c1ccc(N2C(=O)c3[nH]nc(-c4ccc(C)cc4)c3C2c2ccc(O)cc2)cc1 (stereo unspecified) do in these assays?
miR-21 reporter: inconclusive; Nrf2 ARE act: -2%; Nrf2 inh: 21µM*; A549 viability: -25%

For reference, 2 of the compounds above.
How did CCOC(=O)c1ccc(N2C(=O)c3[nH]nc(-c4ccc(OC)cc4)c3C2c2cccc(O)c2)cc1 (stereo unspecified) do in these assays?
miR-21 reporter: inconclusive; Nrf2 ARE act: -4%; Nrf2 inh: inconclusive; A549 viability: -28%

How did CCOC(=O)c1ccc(N2C(=O)c3[nH]nc(-c4ccc(C)cc4)c3C2c2ccc(O)cc2)cc1 (stereo unspecified) do in these assays?
miR-21 reporter: inconclusive; Nrf2 ARE act: -2%; Nrf2 inh: 21µM*; A549 viability: -25%
